Test results taken from PMC7716890 (Clinical Pharmacokinetics, 2020).
Entries after “also recorded” stand apart in the source; their conditions may differ.

How the values were obtained:
[1] = cocktail with probenecid vs cocktail alone

effect of rifampin on Cmax and AUC0–tz (exposure) (cocktail with single-dose rifampin vs cocktail alone): not impacted; also recorded: unchanged
effect of verapamil on systemic exposure (cocktail with single-dose verapamil vs cocktail alone): no effect
effect of probenecid on systemic exposure [1]: no relevant effect
Structure (SMILES): CN(C)C(=N)N=C(N)N [Metformin, metformin]
